Hits are enriched below; roughly 16% of the tested compounds scored in any of these assays.
TDP1 cell CPT: DT40-hTDP1 cell growth loss with CPT; chicken DT40 Tdp1-/-;hTDP1 cells + 20 nM CPT, ATP luminescence, 48 h; Potency, µM (top dose mostly 46.2 µM), without a hit: at the highest dose activity change, negative = growth inhibition, actives largely listed as inhibitors; actives 12% (n = 420,000); AID 686979; note: potency is the fitted concentration of half-maximal effect; % is set by controls: 0 for no effect and ±100 for the full control effect; nearly all actives have a fitted effect of over 55% in size
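Chicken DT40 Tdp1-/- cells complemented with human TDP1, 400 cells/well, exposed to compounds plus 20 nM camptothecin for at least 48 h at 37 C; viability read as ATP content by CellTiter-Glo luminescence.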
uPA surface inh: inhibitors of cell surface uPA generation | actives 0.31% (n = 330,000) | AID 540303 | Potency, µM (top dose mostly 38.3 µM), inactives show top-dose activity change, negative = inhibition, usual class: inhibitors | cell surface uPA generation assay, qHTS; active = well fitted inhibition curve with a large enough effect; inconclusive = small, poorly fitted or top-dose-only effect; inactive = no such curve, though single readings can be large or run the other way; tested in mouse RAW 264.7 cells; note: potency is the fitted concentration of half-maximal effect; % is set by controls: 0 for no effect and ±100 for the full control effect; nearly all actives have a fitted effect of over 55% in size
TDP1 cell noCPT: qHTS for Inhibitors of human tyrosyl-DNA phosphodiesterase 1 (TDP1): qHTS in cells in absence of CPT; DT40 Tdp1-/- hTDP1 cells, no CPT, ATP luminescence, 48 h; Potency, µM (doses to about 46.2 µM), for the others: at the top dose activity change, negative = growth inhibition, actives largely listed as inhibitors; actives 15% (n = 420,000); AID 686978, 2013; note: potency is the fitted concentration of half-maximal effect; % is set by controls: 0 for no effect and ±100 for the full control effect; nearly all actives have a fitted effect of over 55% in size
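Luminescent ATP content (CellTiter-Glo) served as the growth readout. Knockout chicken DT40 cells expressing human TDP1 were exposed to compounds without camptothecin for a minimum 48 hr at 37 °C.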
TDP1 block: inhibitors of human tyrosyl-DNA phosphodiesterase TDP1; Potency, µM (highest dose often 130 µM), for inactives: top-dose activity change, negative = inhibition, hits mostly inhibitors; recombinant TDP1, AlphaScreen DNA substrate cleavage; actives 0.28% (n = 350,000); note: potency is the fitted concentration of half-maximal effect; % is set by controls: 0 for no effect and ±100 for the full control effect; nearly all actives have a fitted effect of over 40% in size
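Steps: enzyme plus compound, 15 min RT; add biotin/phosphotyrosine-FITC oligonucleotide (15 nM final), react 5 min; add donor/acceptor beads (10 ug/ml final), 10 min; read AlphaScreen. Tdp1 at 1 nM final.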
miR-21 reporter: raises the signal of a miR-21 reporter | HeLa miR-21 FLuc reporter, luciferase, 48 h | Potency, µM (doses to about 38.3 µM), for the others: at the highest dose reporter change, positive = more light | 340,000 tested, under 10 active | AID 2288; active = well fitted rising curve with a large enough effect; inconclusive = small, poorly fitted or top-dose-only effect; inactive = no such curve, though single readings can be large or run the other way;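 also: % of control where 0% means no effect; miR-21 action dims this reporter so a rising signal means less miR-21 action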
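Compounds were titrated across several concentrations (up to approximately 40 uM) and incubated 48 hours with HeLa miR-21-FLuc reporter cells (miR-21 target sequence downstream of FLuc, endogenous miR-21). Readout was firefly luciferase luminescence after lytic detection reagent.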
Active calls of the source: *; ? = inconclusive; · = no result; [ ] = remark or other dose. Unless noted, calls come from the whole dose curve; as a rule, active = well fitted curve in the direction sought with a large enough effect; inconclusive = small, poorly fitted or top-dose-only effect, or another doubt; inactive = no such curve, though single readings can be large; an effect the other way counts as inactive or inconclusive.

| SMILES | miR-21 reporter | TDP1 cell CPT | TDP1 cell noCPT | TDP1 block | uPA surface inh |
| --- | --- | --- | --- | --- | --- |
| O=S(=O)(c1ccc2oc3ccc(S(=O)(=O)N4CCCCC4)cc3c2c1)N1CCCCC1 | 1% | -1% | -8% | 2% | 0% |
| CC(C)CCNC(=O)C(c1ccncc1)N(Cc1cccs1)C(=O)Cn1nnc(-c2ccc(F)cc2)n1 (stereo not drawn) | -16% | 9.2µM* | ? | 5% | -8% |
| CCCC(C(=O)NC1CCCC1)N(C(=O)Cn1nnc(-c2ccc(C)o2)n1)C1CCCC1 (stereo not drawn) | -7% | ? | ? | 5% | · |
| CCC(C(=O)NC1CCCC1)N(Cc1cccs1)C(=O)Cn1nnc(-c2ccc(OC)c(OC)c2)n1 (stereo not drawn) | -4% | -22% | ? | 0% | -20% |
| CCC(C(=O)NC1CCCC1)N(C(=O)Cn1nnc(-c2ccc(C)cc2)n1)C1CCCC1 (stereo not drawn) | · | 26µM* | 18µM* | · | 13% |
| CCC(C(=O)NC1CCCC1)N(C(=O)Cn1nnc(-c2ccc(OC)c(OC)c2)n1)C1CCCCC1 (stereo not drawn) | -15% | 13µM* | ? | 1% | · |
| O=C(NCC1CCCO1)C(c1ccncc1)N(Cc1cccs1)C(=O)Cn1nnc(-c2ccc(F)cc2)n1 (stereo not drawn) | -1% | -10% | -10% | 3% | -5% |
| COc1ccc(-c2nnn(CC(=O)N(CC(=O)NC3CCCC3)Cc3ccco3)n2)cc1OC | -6% | -2% | -6% | 0% | -5% |
| COc1ccc(-c2nnn(CC(=O)N(Cc3cccs3)C(C)C(=O)NC3CCCC3)n2)cc1OC (stereo not drawn) | -8% | 29µM* | ? | 6% | · |
| COCCN(C(=O)COC(=O)CCOc1cc(C)ccc1C)c1c(N)n(Cc2ccccc2)c(=O)[nH]c1=O | · | -4% | ? | · | 0% |

The closing three entries of the part before lead into the next:
| SMILES | miR-21 reporter | TDP1 cell CPT | TDP1 cell noCPT | TDP1 block | uPA surface inh |
| --- | --- | --- | --- | --- | --- |
| COc1ccc(-c2nnn(CC(=O)N(CC(=O)NC3CCCC3)Cc3ccco3)n2)cc1OC | -6% | -2% | -6% | 0% | -5% |
| COc1ccc(-c2nnn(CC(=O)N(Cc3cccs3)C(C)C(=O)NC3CCCC3)n2)cc1OC (stereo not drawn) | -8% | 29µM* | ? | 6% | · |
| COCCN(C(=O)COC(=O)CCOc1cc(C)ccc1C)c1c(N)n(Cc2ccccc2)c(=O)[nH]c1=O | · | -4% | ? | · | 0% |
| O=C(Cc1ccc(NC(=O)C2CCN(C(=O)c3ccccc3)CC2)cc1)Nc1ccc(C(=O)N2CCOCC2)cc1 | · | -16% | -1% | · | 21% |
| C=CCC[C@@H](Cc1ccc(F)cc1)C(=O)OC[C@@H](Cc1c[nH]c2ccccc12)NC(=O)[C@@H](CC=C)CC(=O)NCCO | · | ? | ? | 5% | -18% |
| C=CCC[C@H](Cc1ccc(F)cc1)C(=O)OC[C@H](Cc1c[nH]c2ccccc12)NC(=O)[C@H](CC=C)CC(=O)NCCO | · | ? | 18µM* | 5% | -8% |
| C=CCC[C@@H](Cc1ccc(F)cc1)C(=O)OC[C@@H](Cc1c[nH]c2ccccc12)NC(=O)[C@H](CC=C)CC(=O)NCCO | · | ? | 18µM* | 3% | -2% |
| COC(=O)NCC(C)OC(=O)Nc1cccc(Cl)c1 (stereo not drawn) | -28% | 0% | -5% | 6% | -2% |
| O=C(CN1CCCCCC1)Nc1ccc(Cl)cn1 | -16% | -13% | -16% | 4% | 0% |
| O=C(/C=C/c1cccs1)c1cc(Cl)ccc1O | -3% | 16µM* | ? | 2% | -25% |
| Cc1nc2c(O)cccc2c(=O)[nH]1 | · | ? | 0% | 10% | · |
| COc1ccc(-c2sc(Nc3ccccc3)n[n+]2-c2ccc(F)cc2)cc1Br | 3% | 5.8µM* | 18µM* | · | 15% |
| COc1ccc(-c2sc(Nc3ccccc3)n[n+]2C)c(C)c1C | 6% | 21µM* | 21µM* | · | -28% |

Next part
| SMILES | miR-21 reporter | TDP1 cell CPT | TDP1 cell noCPT | TDP1 block | uPA surface inh |
| --- | --- | --- | --- | --- | --- |
| COc1ccc2ccccc2c1-c1sc(Nc2ccccc2)n[n+]1-c1ccc(F)cc1 | ? | 21µM* | 13µM* | · | ? |
| O=C(Cc1nc2ccccc2[nH]1)c1ccc(Br)cc1 | -35% | ? | ? | 3% | 1% |
| N#Cc1c2c(c(Nc3ccccc3)n3c1nc1ccccc13)CCC2 | -9% | ? | ? | 8% | 1% |
| N#Cc1c2c(c(Nc3ccc(F)cc3)n3c1nc1ccccc13)CCCC2 | · | 16µM* | 18µM* | · | -4% |
| COC(=O)C[C@@H]1OC[C@H](CO)N1S(=O)(=O)c1ccc(C)cc1 | · | 5% | -2% | · | · |
| COC(=O)CC1N(S(=O)(=O)c2ccc(C)cc2)c2ccccc2C1(C(=O)OC)C(=O)OC (stereo not drawn) | · | 26µM* | ? | · | · |
| Cc1ccc(S(=O)(=O)N2c3ccccc3OC(C(=O)OC(C)(C)C)(C(=O)OC(C)(C)C)C2CC(=O)c2ccccc2)cc1 (stereo not drawn) | · | 6.5µM* | 5.8µM* | · | · |
| O=C(c1ccccc1)c1nccc2ccccc12 | -12% | -10% | -23% | 0% | -1% |
| COc1ccccc1-c1cc(-c2ccccc2)nc(=O)[nH]1 | -8% | -10% | -3% | · | -2% |
| Cc1ccc(S(=O)(=O)N2CCCC(C(=O)Nc3ccc(C(=O)O)cc3)C2)cc1Cl (stereo not drawn) | -6% | -5% | -7% | 3% | 2% |

Additional structures follow:
| SMILES | miR-21 reporter | TDP1 cell CPT | TDP1 cell noCPT | TDP1 block | uPA surface inh |
| --- | --- | --- | --- | --- | --- |
| CCN(CC(=O)Nc1c(F)cccc1F)C(=O)Cc1sc(C)nc1-c1ccc(F)cc1 | · | -3% | -9% | 1% | -2% |
| CCc1sc(N(C(=O)Cc2ccccc2)c2ccccc2F)nc1-c1ccc(C)cc1 | 0% | ? | 16µM* | -3% | -9% |
| Cc1ccccc1S(=O)Cc1ccc(C(=O)N2CCN(C(=O)c3ccco3)CC2)o1 (stereo not drawn) | 2% | -17% | 2% | 3% | 2% |
| Cc1nn(Cc2ccccc2Cl)c(Cl)c1/C=C/C(=O)OCC(=O)NC1CCS(=O)(=O)C1 (stereo not drawn) | -5% | 21% | -26% | 0% | 3% |
| Cc1nn(Cc2ccccc2Cl)c(Cl)c1/C=C/C(=O)OCC(=O)NC(N)=O | -2% | ? | 2.3µM* | 0% | 6% |
| Cc1nn(Cc2ccc(Cl)cc2Cl)c(Cl)c1/C=C/C(=O)OCC(=O)NCC(F)(F)F | 2% | -29% | 21µM* | 4% | 2% |
| Cc1nn(Cc2ccccc2)c(Cl)c1/C=C/C(=O)OCC(=O)N1CCCC1=O | -1% | 13% | 17% | 7% | -2% |
| Cc1ccc2[nH]c(C(=O)N3CCc4c(cnc(C)c4CNC(=O)c4ccccc4F)C3)cc2c1 | · | 19%[9.04 µM] | -17% | · | · |
| CCOc1ccc(C2CC(c3c(O)c4ccccc4oc3=O)=NN2c2ccccc2)cc1OC (stereo not drawn) | 0% | 5% | ? | 6% | -2% |
| CCCOc1ccc(CNC(=O)C(CC)n2nc(C)c3sc4ccccc4c3c2=O)cc1 (stereo not drawn) | -38% | 21µM* | 23µM* | 3% | · |
| Cc1nn(C(C)C(=O)N2CCN(c3ccc(F)cc3)CC2)c(=O)c2c1sc1ccccc12 (stereo not drawn) | -37% | -20% | -24% | 6% | · |

Copied from the listing for reference:
| SMILES | miR-21 reporter | TDP1 cell CPT | TDP1 cell noCPT | TDP1 block | uPA surface inh |
| --- | --- | --- | --- | --- | --- |
| Cc1nc2c(O)cccc2c(=O)[nH]1 | · | ? | 0% | 10% | · |
| COc1ccc(-c2sc(Nc3ccccc3)n[n+]2-c2ccc(F)cc2)cc1Br | 3% | 5.8µM* | 18µM* | · | 15% |

Source: PubChem BioAssay
